Assay [1] is described as follows: Nuclear factor erythroid 2-related factor 2/antioxidant responsive element (Nrf2/ARE) small molecule agonists: qHTS cell viability counter screen in human keratinocytes (AID 1919968; active = well fitted cell-killing curve with a large enough effect in the repeat runs; note: nearly all actives have a fitted effect of over 55% in size). Particulars: KeratinoSens HaCaT ARE cells viability, CellTiter-Fluor, 24 h. In short, it runs like this: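 CellTiter-Fluor fluorescence, read 1 h after reagent, gave viability in the same wells as the ARE-luciferase assay. KeratinoSens cells (1,500/well) had 23 h compound exposure at 37 C/5% CO2 following 5 h plating.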
For orientation: In qHTS, concentration-response curves come from the screen itself.

Sequences of proteins named here, by UniProt entry; tags and fusion partners are left off.
UniProt P14416, whole entry: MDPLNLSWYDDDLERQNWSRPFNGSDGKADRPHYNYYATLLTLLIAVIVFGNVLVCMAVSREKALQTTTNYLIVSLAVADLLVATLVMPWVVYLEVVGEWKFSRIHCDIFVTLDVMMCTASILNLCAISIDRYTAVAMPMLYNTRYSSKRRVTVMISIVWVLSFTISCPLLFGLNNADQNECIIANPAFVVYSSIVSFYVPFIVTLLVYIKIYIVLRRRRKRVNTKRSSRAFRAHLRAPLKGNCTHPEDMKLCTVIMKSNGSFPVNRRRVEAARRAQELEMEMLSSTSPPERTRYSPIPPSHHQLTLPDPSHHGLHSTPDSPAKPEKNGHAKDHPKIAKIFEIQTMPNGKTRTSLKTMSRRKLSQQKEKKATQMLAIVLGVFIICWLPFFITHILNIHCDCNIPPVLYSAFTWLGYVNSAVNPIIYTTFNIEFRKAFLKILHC

A short description of assay [2]: G protein-coupled receptor (GPCR) small molecule agonists, calcium flux assay: HEK293 wild type cell line counter screen (AID 1920065). In a few lines:
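Calcium flux counter screen: compound added in agonist mode at 15 concentrations in triplicate to dye-loaded parental HEK293 cells. Fluorescence (480/540) read kinetically for 3 min; ATP served as positive control.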
In general terms: Calcium flux is commonly read through the fluorescence of an indicator in the cells.

Assay [3] is described as follows: p53 small molecule agonists, cell-based qHTS assay with rat liver microsomes (AID 1963578). Particulars: HCT-116 p53RE-bla, beta-lactamase ratio, 16 h. In short, it runs like this: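 Fluorescence from a beta-lactamase reporter under a p53 response element was measured after cells had been incubated 16 h at 37 C with test compound and rat liver microsomes plus NADPH (0.5 mg/mL final each).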

Assay [4] is described as follows: p53 small molecule agonists, cell-based qHTS assay: qHTS cell viability counter screen (AID 1963581). Note: nearly all actives have a fitted effect of over 45% in size. Particulars: p53RE-bla HCT-116 viability, ATP luminescence, 16 h; at 66 µM (top of the series) unless noted. In a few lines:
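Counter screen read by CellTiter-Glo luminescence (ATP content, 30 min at room temperature), run in the same wells as the beta-lactamase reporter read. HCT-116 p53RE-bla cells saw compounds for 16 h at 37 C.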

The nature of assay [5]: p53 small molecule agonists, cell-based qHTS assay (AID 1963582; active = well fitted activation curve with a large enough effect in the signal ratio in the repeat runs, not every such curve was filed as active; the % refers to the signal ratio; note: potency is the fitted concentration of half-maximal effect). In short, it runs like this:
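Read-out is beta-lactamase FRET fluorescence after 2 h at room temperature with LiveBLAzer B/G substrate. p53 response element-bla cells were treated 16 h at 37 C with compounds in DMSO, added 5 h after seeding.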

The nature of assay [6]: cAMP Responsive Elements (CRE) small molecule antagonists, cell-based qHTS assay (AID 1963591; active = well fitted inhibition curve with a large enough effect in the signal ratio in the repeat runs, not every such curve was filed as active; the % refers to the signal ratio). Particulars: CRE-bla HEK293T, beta-lactamase FRET ratio. In short, it runs like this: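 Antagonist mode: compounds are added alongside the adenylyl cyclase activator NKH477 (0.25 uM final) to CRE-bla HEK293T cells for 3 h. LiveBLAzer FRET substrate, 2 h at room temperature, reports bla expression.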

Assay [7] concerns the target D(2) dopamine receptor (Homo sapiens) (UniProt P14416). The experiment in a line: Dopamine D2 receptor (DRD2) small molecule antagonists, cell-based qHTS assay (AID 1963595; active = well fitted inhibition curve with a large enough effect in the signal ratio in the repeat runs, with a control signal flat; the % refers to the signal ratio). Particulars: HEK293-DRD2 cAMP HTRF antagonist mode. In a few lines: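 In this cell-based antagonist screen, compounds act for 10 min at room temperature before a 30 min challenge with 12 nM quinpirole and 200 nM NKH477. cAMP is quantified by HTRF competition in DRD2-HEK293 cells containing 0.1 mM Ro20-1724.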

Setting [8] is: at 92.4 µM (top of the series) unless noted.

Each structure is given as a SMILES string. Values joined by “and” are separate entries in the source; they are usually repeats but may differ in a detail not shown here. Equal entries are not always repeated. Only a part is listed here, and it is no random draw. Records with an inconclusive call do not appear. More than one record can exist for a structure, and the calls need not agree. Active and inactive are the calls of the source. Unless noted, calls come from the whole dose curve.

The results in this text go back to PubChem BioAssay (Tox21).
% is set by controls: 0 for no effect and ±100 for the full control effect.

With `O=[N+]([O-])OCC(CO[N+](=O)[O-])(CO[N+](=O)[O-])CO[N+](=O)[O-]`, the results for the activity change, negative = cytotoxicity in assay [1] (setting [8]) and in assay [4] were inactive: 1.72% and inactive: 0.09%, respectively. In addition, the Potency result in assay [2] and in assay [5] was “inactive” each time. Further, the activation in assay [3] (at 66 µM (top of the series)) was inactive: -1.84%. In addition, the activity change, negative = inhibition is inactive: -11.8% in assay [6] (at 92.4 µM (top of the series)) and inactive: -2.6% in assay [7] (setting [8]).

For `COP(C)(=O)OC`, the activity change, negative = cytotoxicity in assay [1] (setting [8]) is inactive: 3.02% and inactive: 0.137%; in assay [4], inactive: 6.93% and inactive: 10.7%. Further, the Potency result in assay [2] and in assay [5] was “inactive” in each case. In addition, the activation in assay [3] (at 66 µM (top of the series)) is inactive: -3.41% and inactive: 0.558%. Moreover, the activity change, negative = inhibition is inactive: -2.72% and inactive: 2.6% in assay [6] (at 92.4 µM (top of the series)); inactive: -6.85% and inactive: -11.7% in assay [7] (setting [8]).

In the case of `CCN(CC)CCCl`, the activity change, negative = cytotoxicity was inactive: -6.47% in assay [1] (setting [8]) and inactive: 25.3% in assay [4]. The Potency entry in assay [2] and in assay [5] was “inactive” in each case. Also, the activation in assay [3] (at 66 µM (top of the series)) is inactive: 0.502%. Further, the activity change, negative = inhibition in assay [7] (setting [8]) was inactive: -0.376%.

Regarding `[NH4+].[O-][Cl+3]([O-])([O-])[O-]`, the activity change, negative = cytotoxicity in assay [1] (setting [8]) is inactive: 2.11% and inactive: -0.316%; in assay [4], inactive: -0.547% and inactive: -14.3%. In addition, the Potency entry in assay [2] was “inactive”. The activity change, negative = inhibition in assay [6] (at 92.4 µM (top of the series)) is inactive: -0.0474% and inactive: 16.8%; in assay [7] (setting [8]), inactive: -0.24% and inactive: 2.91%.

In the case of `OCCSCCO`, the activity change, negative = cytotoxicity in assay [1] (at 42.5 µM (top of the series)) was inactive: -0.248%; in assay [1] (at 92.4 µM (top of the series)), inactive: -1.4%; in assay [4] it was inactive: 4.14% [at 30.3 µM]. For the same compound, the Potency entry in assay [2] was “inactive”. Also, the activation is inactive: -0.514% in assay [3] (at 30.3 µM (top of the series)) and inactive: 0.331% in assay [3] (at 66 µM (top of the series)). The Potency in assay [5] is active: 41.5 µM and inactive. Further, the activity change, negative = inhibition in assay [6] (at 42.4 µM (top of the series)) was inactive: 9.8%; in assay [6] (at 92.4 µM (top of the series)) it was inactive: 4.55%; in assay [7] (at 42.5 µM (top of the series)), inactive: -13.4%; in assay [7] (at 92.4 µM (top of the series)), inactive: 1.76%.

With `CN(C)CCCl`, the activity change, negative = cytotoxicity in assay [1] (setting [8]) was inactive: -3.76%; in assay [4] it was inactive: -1.57%. Also, the Potency result in assay [2] and in assay [5] was “inactive” each time. Also, the activation in assay [3] (at 66 µM (top of the series)) was inactive: 0.727%. In addition, the results for the activity change, negative = inhibition in assay [6] (at 92.4 µM (top of the series)) and in assay [7] (setting [8]) were inactive: -0.727% and inactive: 3.5%, respectively.

On to `COc1ccc([N+](=O)[O-])cc1[N+](=O)[O-]`, for which the activity change, negative = cytotoxicity in assay [1] (setting [8]) was inactive: 4.97%; in assay [4] it was inactive: 6.17%. Besides, the Potency entry in assay [2] and in assay [5] was “inactive” in each case. Besides, in assay [3] (at 66 µM (top of the series)), the activation is inactive: 0.24%. The activity change, negative = inhibition in assay [6] (at 92.4 µM (top of the series)) is inactive: -0.659%; in assay [7] (setting [8]), inactive: -1.59%.

With `Cc1ccc([N+](=O)[O-])cc1[N+](=O)[O-]`, the activity change, negative = cytotoxicity in assay [1] (setting [8]) was inactive: 0.67% and inactive: -1.39%; in assay [4], inactive: 1.34% and inactive: -11.6%. For the same compound, the Potency entry in assay [2] and in assay [5] was “inactive” each time. Also, the activation in assay [3] (at 66 µM (top of the series)) is inactive: -5.31% and inactive: -1.52%. Moreover, the activity change, negative = inhibition in assay [6] (at 92.4 µM (top of the series)) was inactive: 4.61% and inactive: -13.9%; in assay [7] (setting [8]), inactive: 5.55%.

As to `CCOP(=O)(CC)OCC`, the activity change, negative = cytotoxicity in assay [1] (setting [8]) was inactive: -2.06%; in assay [4], inactive: 0.595%. Also, the Potency entry in assay [2] and in assay [5] was “inactive” throughout. For the same compound, in assay [3] (at 66 µM (top of the series)), the activation is inactive: -0.2%. The results for the activity change, negative = inhibition in assay [6] (at 92.4 µM (top of the series)) and in assay [7] (setting [8]) were inactive: -4.18% and inactive: 4.54%, respectively.

On to `N=C(N)N[N+](=O)[O-]`, for which the activity change, negative = cytotoxicity in assay [1] (setting [8]) is inactive: 1.9%; in assay [4] it was inactive: 4.43%. Besides, the Potency entry in assay [2] and in assay [5] was “inactive” in each case. Besides, the activation in assay [3] (at 66 µM (top of the series)) is inactive: 2.6%. The activity change, negative = inhibition is inactive: -0.378% in assay [6] (at 92.4 µM (top of the series)) and inactive: -5.34% in assay [7] (setting [8]).
